# Measured values reported in PubChem BioAssay AID2029 (NMMLSC, 2009).
# The entries are a selection whose mix differs from that of the whole data set. Some salts and complexes are drawn in separate pieces, as the source files them; their charges need not balance. Activity calls are given as the source filed them.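 The calls were made as follows: active = GFP response relative to DMSO above a set limit, near the screen mean plus 3 SD (cut at about 150% in these data); inconclusive = Fewer than 70 cells measured for a yeast strain; inactive = the rest.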
# Test: TOR pathway RTG branch CIT2 reporter changes – S. cerevisiae, GFP fusion, multiplex flow cytometry, MLPCN library, primary screen (AID 2029);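 also: ratio of well median GFP fluorescence to mean of DMSO wells on the plate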
# Conditions: S. cerevisiae CIT2-GFP strain, 3 h, at 10 µM, active compounds read high, 100 means same as DMSO wells
row,Compound,GFP response vs DMSO
1,CCN(CC)CCCOC(=O)C(O)(c1ccccc1)c1ccccc1,inactive: 105%
2,O=[N+]([O-])c1cc([N+](=O)[O-])c(Nc2cccnc2)c([N+](=O)[O-])c1,inactive: 78.2%
3,CC(C)(C)c1ccc(OP(C)(=O)Nc2ccc(SC(F)(F)F)cc2)cc1 (stereo unspecified),inactive: 92.6%
4,Cc1cccc(C)c1OP(C)(N)=O (stereo unspecified),inactive: 94.5%
5,O=[N+]([O-])c1ccc2c(c1)C=Nc1ccccc1O2,inactive: 97.4%
6,CCOC(=O)c1ccc(NP(C)(=O)Oc2ccccc2)cc1 (stereo unspecified),inactive: 105%
7,COc1ccccc1OP(C)(=O)Nc1ccc(C)cc1 (stereo unspecified),inactive: 89%
8,Cc1ccc(NP(C)(=O)Oc2ccccc2)c(C)c1 (stereo unspecified),inactive: 92.7%
9,COc1ccccc1OP(C)(=O)Nc1cc(Cl)ccc1C (stereo unspecified),inactive: 93.3%
10,COc1ccc(OP(C)(=O)Nc2cccc(F)c2)cc1 (stereo unspecified),inactive: 102%
11,Cc1cc(C)cc(OP(C)(N)=O)c1 (stereo unspecified),inactive: 96%
12,CP(=S)(Nn1cnnc1)Oc1ccccc1 (stereo unspecified),inactive: 94.1%
13,COc1ccccc1OP(C)(=O)Nc1ccccc1 (stereo unspecified),inactive: 98.3%
14,CP(=O)(Nc1ccccc1Br)Oc1ccccc1 (stereo unspecified),inactive: 93.6%
15,Cc1cccc(C)c1OP(C)(=O)Nc1ccc(SC(F)(F)F)cc1 (stereo unspecified),inactive: 93.9%
16,CP(=O)(Nc1ccc(SC(F)(F)F)cc1)Oc1ccc(Cl)cc1 (stereo unspecified),inactive: 96.5%
17,CP(=O)(Oc1ccccc1)OC(c1ccccc1)C(F)(F)F (stereo unspecified),inactive: 99%
18,CCc1ccc(OP(C)(=O)N2CCN(c3ccc([N+](=O)[O-])cc3)CC2)cc1 (stereo unspecified),inactive: 87.7%
19,CP(=O)(NC(=O)Nc1ccccc1)Oc1ccccc1 (stereo unspecified),inactive: 94.7%

row,Compound,GFP response vs DMSO
1,Cc1cc(C)cc(OP(C)(=O)Nc2ccc(SC(F)(F)F)cc2)c1 (stereo unspecified),inactive: 110%
2,CCOP(C)(=S)SCC(=O)NC(C)C(=O)O (stereo unspecified),inactive: 107%
3,CCOC(=O)c1ccc(NP(C)(=O)Oc2ccc(OC)cc2)cc1 (stereo unspecified),inactive: 97.9%
4,O=[N+]([O-])c1cc([N+](=O)[O-])c(O)c([N+](=O)[O-])c1.c1ccc(Oc2ccncc2)cc1,inactive: 101%
5,CP(=O)(Nc1ccccn1)Oc1ccc(Cl)cc1 (stereo unspecified),inactive: 95.1%
6,O=[N+]([O-])c1cc([N+](=O)[O-])c(-n2nnc3ccccc32)c([N+](=O)[O-])c1,inactive: 98.3%
7,O=[N+]([O-])c1cc([N+](=O)[O-])c(-c2cnn(-c3ccccc3)c2)c([N+](=O)[O-])c1,inactive: 86%
8,Cc1nc2ccc3ccccc3c2s1.O=[N+]([O-])c1cc([N+](=O)[O-])c(O)c([N+](=O)[O-])c1,inactive: 97%
9,O=[N+]([O-])c1cc([N+](=O)[O-])c(Nc2nnnn2CCO)c([N+](=O)[O-])c1,inactive: 104%
10,CC1=C2N=C(C=C3N=C(C(C)=C4[N-][C@@](C)([C@@H]5N=C1[C@](C)(CCC(=O)NC[C@@H](C)OP(=O)([O-])O[C@H]1[C@@H](O)[C@@H](n6cnc7cc(C)c(C)cc76)O[C@@H]1CO)[C@H]5CC(N)=O)[C@@](C)(CC(N)=O)[C@@H]4CCC(N)=O)[C@@](C)(CC(N)=O)[C@@H]3CCC(N)=O)C(C)(C)[C@@H]2CCC(N)=O.[C-]#N.[Co+3],inactive: 76.6%
11,CCOC(=O)C(CC)C1=NC(C)(C)Cc2ccccc21.O=[N+]([O-])c1cc([N+](=O)[O-])c(O)c([N+](=O)[O-])c1 (stereo unspecified),inactive: 100%
12,COc1ccccc1OP(C)(=O)Nc1c(C)cccc1C (stereo unspecified),inactive: 93%
13,CN1CCCCC1COC(=O)C1(O)c2ccccc2CCc2ccccc21 (stereo unspecified),inactive: 92.8%
14,CP(=O)(Nc1ccc(SC(F)(F)F)cc1)Oc1ccccc1 (stereo unspecified),inactive: 99.7%
15,O=C(O)c1cccc(Nc2c([N+](=O)[O-])cc([N+](=O)[O-])cc2[N+](=O)[O-])c1,inactive: 106%
16,CC1=NCCc2c1[nH]c1ccccc21.O=[N+]([O-])c1cc([N+](=O)[O-])c(O)c([N+](=O)[O-])c1,inactive: 93.6%
17,COc1ccccc1OP(C)(=O)Nc1cccc(Br)c1 (stereo unspecified),inactive: 114%
18,Cc1cc(C)cc(OP(C)(=O)Nc2ccc(C)cc2C)c1 (stereo unspecified),inactive: 96.4%
19,CCOC(=O)c1ccc(NP(C)(=O)Oc2cc(C)cc(C)c2)cc1 (stereo unspecified),inactive: 108%

row,Compound,GFP response vs DMSO
1,CP(=O)(Nc1cccc(Br)c1)Oc1ccccc1 (stereo unspecified),inactive: 103%
2,Cc1cc(C)cc(OP(C)(=O)Nc2ccccn2)c1 (stereo unspecified),inactive: 99.2%
3,Cc1ccc(C)c(NP(C)(=O)Oc2ccccc2)c1 (stereo unspecified),inactive: 104%
4,CC(C)c1ccc(OP(C)(=O)Nc2ccc(SC(F)(F)F)cc2)cc1 (stereo unspecified),inactive: 100%
5,CP(=O)(Nc1ccccc1F)Oc1ccccc1 (stereo unspecified),inactive: 81.2%
6,O=C(OCCN1CCN(CCOCc2ccccc2)CC1)C(O)(c1ccccc1)c1ccccc1,inactive: 100%
7,O=C(OC1CN2CCC1CC2)c1ccc([N+](=O)[O-])cc1 (stereo unspecified),inactive: 89.8%
8,COc1ccc2c(c1O)-c1c(O)c(OC)cc3c1[C@H](C2)[N+](C)(C)CC3.O=[N+]([O-])c1cc([N+](=O)[O-])c([O-])c([N+](=O)[O-])c1[O-],inactive: 119%
9,COc1ccc(OP(C)(=O)Nc2ccc(SC(F)(F)F)cc2)cc1 (stereo unspecified),inactive: 95.1%
10,CCOC(=O)c1ccc(NP(C)(=O)Oc2ccc(F)cc2)cc1 (stereo unspecified),inactive: 105%
11,CCN(CC)CCCOC(=O)C(O)(c1ccccc1)C1CCCCC1 (stereo unspecified),inactive: 103%
12,O=[N+]([O-])c1cc([N+](=O)[O-])c(OC2CCCCC2O)c([N+](=O)[O-])c1 (stereo unspecified),inactive: 106%
13,CCCCCOc1ccc(NP(C)(=O)Oc2ccc(Cl)cc2Cl)cc1 (stereo unspecified),inactive: 102%
14,CP(=O)(Nc1ccccc1)Oc1ccc(F)cc1 (stereo unspecified),inactive: 102%
15,COc1ccc(OP(C)(=O)Nc2cccc(Br)c2)cc1 (stereo unspecified),inactive: 104%
16,COc1ccc(NP(C)(=O)Oc2ccccc2OC)cc1 (stereo unspecified),inactive: 96.9%
17,CN(C)CCOC(=O)C(O)(c1ccccc1)C1CCCCC1 (stereo unspecified),inactive: 107%
18,O=[N+]([O-])c1cc([N+](=O)[O-])c(NCC2CCS(=O)(=O)C2)c([N+](=O)[O-])c1 (stereo unspecified),inactive: 103%
